From patent US11613525B2 (CTXT PTY LIMITED, priority 2018, dated 2023) come the findings set out here.

Protein sequences, listed by entry. Tags and fused reporters are not part of them.
UniProt Q86WV6, whole entry R71H/G230A/H232R/R293Q: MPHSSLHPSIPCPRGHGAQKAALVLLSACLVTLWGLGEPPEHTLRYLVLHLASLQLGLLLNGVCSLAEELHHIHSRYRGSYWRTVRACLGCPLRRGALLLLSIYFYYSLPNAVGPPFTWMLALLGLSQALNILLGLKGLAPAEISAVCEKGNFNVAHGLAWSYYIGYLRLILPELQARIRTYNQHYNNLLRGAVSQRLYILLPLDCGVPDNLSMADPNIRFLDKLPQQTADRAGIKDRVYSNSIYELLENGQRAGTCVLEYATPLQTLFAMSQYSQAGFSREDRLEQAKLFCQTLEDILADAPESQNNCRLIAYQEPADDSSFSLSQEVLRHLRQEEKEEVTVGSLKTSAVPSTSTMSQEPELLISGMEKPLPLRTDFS
UniProt Q86WV6, whole entry H232R: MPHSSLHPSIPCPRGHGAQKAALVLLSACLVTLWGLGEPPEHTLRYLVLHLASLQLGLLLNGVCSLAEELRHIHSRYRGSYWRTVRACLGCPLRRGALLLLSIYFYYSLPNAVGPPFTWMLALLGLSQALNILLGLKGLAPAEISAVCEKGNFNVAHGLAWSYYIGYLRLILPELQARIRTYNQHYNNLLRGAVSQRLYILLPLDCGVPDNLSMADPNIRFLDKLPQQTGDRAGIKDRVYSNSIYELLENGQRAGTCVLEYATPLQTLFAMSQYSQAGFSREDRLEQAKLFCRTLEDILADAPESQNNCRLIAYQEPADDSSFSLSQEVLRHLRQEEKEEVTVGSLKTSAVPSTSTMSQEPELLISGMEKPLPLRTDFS
UniProt Q86WV6, whole entry G230A/H232R/R293Q, looked up: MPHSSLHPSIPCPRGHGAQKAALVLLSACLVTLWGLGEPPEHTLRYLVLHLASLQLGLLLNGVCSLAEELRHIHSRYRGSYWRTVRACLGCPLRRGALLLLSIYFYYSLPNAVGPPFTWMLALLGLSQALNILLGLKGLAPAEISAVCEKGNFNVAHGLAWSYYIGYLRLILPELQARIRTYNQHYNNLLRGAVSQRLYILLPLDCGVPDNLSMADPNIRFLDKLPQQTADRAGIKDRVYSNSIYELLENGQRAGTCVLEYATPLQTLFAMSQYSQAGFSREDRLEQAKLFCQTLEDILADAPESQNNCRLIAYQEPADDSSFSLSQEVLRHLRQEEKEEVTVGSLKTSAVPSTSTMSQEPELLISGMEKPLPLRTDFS

In assay [1] the target is huSTING (HAQ) (Homo sapiens (Human), UniProt Q86WV6, G230A/H232R/R293Q/R71H). The assay can be described thus: THP-1 reporter cell line assay, THP-1 STING Lucia ISG cells. The format is cell-based. As to conditions: 24 h, top concentration 50 μM, read-out: Cellular EC50 huSTING (HAQ).
In assay [2] the target is huSTING (WT) (Homo sapiens (Human), UniProt Q86WV6, H232R). Briefly: THP-1 reporter cell line assay, THP-1-Dual KI-hSTING-R232 cells. It is filed as cell-based. As to conditions: 24 h, top concentration 50 μM, read-out: Cellular EC50 huSTING (WT).
The target of assay [3] is human STING (HAQ) (Homo sapiens, UniProt Q86WV6, G230A/H232R/R293Q). To be noted: read-out: SPR (HAQ) KD; 25° C.

The structures appear in SMILES notation.

On to `NC(=O)c1ccc(OCc2c(C(=O)O)sc3cccc(Cl)c23)cc1` [Example 8, 3-((4-Carbamoylphenoxy)methyl)-4-chlorobenzo[b]thiophene-2-carboxylic acid], for which the half-maximal effective concentration (EC50) in assay [1] and in assay [2] was more than 50 µM in each case. The Kd in assay [3] amounted to 1.05 µM.
For `NC(=O)c1cc(F)c(OCc2c(C(=O)O)sc3cccc(Cl)c23)c(F)c1` [Example 69, 3-((4-Carbamoyl-2,6-difluorophenoxy)methyl)-4-chlorobenzo[b]thiophene-2-carboxylic acid], the EC50 in assay [1] came out at 16.5 µM; in assay [2], 42.7 µM. Besides, the dissociation constant (Kd) in assay [3] was found to be 0.0886 µM.

A word on the EC50: it is the concentration needed to bring the measured effect to its halfway point. The term Kd denotes the constant that tells how readily two partners part at equilibrium.
